How the values were obtained:
Assay in all cases: non-reducing SDS-PAGE and western blot; conditioned media of transfected HeLa cells; no beta-mercaptoethanol; anti-HA, LI-COR
[1] = biological target: human K12del HA-tagged retinol-binding protein (^HARBP) (human) (UniProt P02753)
[2] = biological target: human E13del HA-tagged retinol-binding protein (^HARBP) (human) (UniProt P02753)
[3] = biological target: human I41N HA-tagged retinol-binding protein (^HARBP) (human) (UniProt P02753)
[4] = biological target: human A55T HA-tagged retinol-binding protein (^HARBP) (human) (UniProt P02753)
[5] = biological target: human G75D HA-tagged retinol-binding protein (^HARBP) (human) (UniProt P02753)
[6] = biological target: human wild-type HA-tagged retinol-binding protein (^HARBP) (human) (UniProt P02753)

Q: How did the percent dimers [1] turn out when “human K12del HA-tagged retinol-binding protein (^HARBP) (from UniProt P02753 19-201) (natural protein)” was run?
A: Its percent dimers is > 85%.

Q: Which percent dimers [2] does the source give for “human E13del HA-tagged retinol-binding protein (^HARBP) (from UniProt P02753 19-201) (natural protein)” here?
A: Its percent dimers is > 85%.

Q: For “human I41N HA-tagged retinol-binding protein (^HARBP) (from UniProt P02753 19-201) (natural protein)”, which percent dimers [3] is on record?
A: The percent dimers was > 85%.

Q: “human A55T HA-tagged retinol-binding protein (^HARBP) (from UniProt P02753 19-201) (natural protein)” was tested. Which percent dimers [4] did it give?
A: Its percent dimers is < 1%.

Q: “human G75D HA-tagged retinol-binding protein (^HARBP) (from UniProt P02753 19-201) (natural protein)” was tested. Which percent dimers [5] did it give?
A: Its percent dimers is > 85%.

Q: “human wild-type HA-tagged retinol-binding protein (^HARBP) (from UniProt P02753 19-201) (natural protein)” was tested. Which percent dimers [6] did it give?
A: Its percent dimers is < 1%.
